Test results taken from patent US12049520B2, “Bicyclic peptide ligands specific for CD137” (priority 2017, dated 2024).

The substances below were run against CD137 (Homo sapiens, UniProt Q07011) (assay: CD137 direct binding assay (fluorescence polarisation)). Details: Table 1, fluorescein-labelled peptides, CD137 protein titrated from 3 μM.

Compared with “[Ac]ACIEEGQYCYRDMYMCA-Sar6-K(FI) [BCY634]”, ACIEEGQYCFADPYMCA-Sar6-K [BCY640] is 16-fold lower in Kd: 1380 nM for the first, 84 nM for the second.

First: [B-Ala]-Sar5-ACDEWGLFCIPHSDCA [BCY657]
Second: ACIEEGQYCYADPYLCA-Sar6-K [BCY646]
The Kd of the first is 34-fold higher: 3620 nM for the first, 105 nM for the second. The second binds more tightly here.

ACLDEGPYCFADPYFCA-Sar6-K [BCY7253] and ACLDPGPFCFADPYMCA-Sar6-K [BCY7251] are within 1.5-fold of each other in Kd: 183 nM for the first, 193 nM for the second.

ACLDPGPYCYADPYMCTFH-Sar6-K [BCY7119] and ACLEPGPYCYADPYMCTHL-Sar6-K [BCY7120] are within 1.5-fold of each other in Kd: 144 nM for the first, 160 nM for the second.

ACVEEGPFCFADPYYCA-Sar6-K [BCY7259] and [B-Ala]-Sar5-ACIEEGQYCYADPYMCA [BCY635] are within 1.5-fold of each other in Kd: 105 nM for the first, 126 nM for the second.

Compared with ACDIGPPYCYRDMYMCA-Sar6-K [BCY655], ACINEGPYCFADPYMCA-Sar6-K [BCY7255] is 9.9-fold lower in Kd: 1340 nM for the first, 136 nM for the second. The second binds more tightly here.

Compared with ACLDEGPFCFSDPYMCA-Sar6-K [BCY7261], ACIEEGQYCYADPYMCA-Sar6-K(FI) [BCY636] is 3.7-fold lower in Kd: 453 nM for the first, 124 nM for the second.

Compared with ACDEWGLYCFAHPDCA-Sar6-K [BCY659], ACIEEGQYCHADPYFCA-Sar6-K [BCY644] is 7.2-fold lower in Kd: 1040 nM for the first, 145 nM for the second. The second binds more tightly here.

Compared with ACIEEGQYCYADPYLCSVG-Sar6-K [BCY647], ACIEEGQYCYADHQLCA-Sar6-K [BCY642] is 1.6-fold lower in Kd: 392 nM for the first, 246 nM for the second. The second binds more tightly here.

ACIEEGQYCYSDPYYCA-Sar6-K [BCY639] and ACIEEGQYCYSDPYLCA-Sar6-K [BCY649] are within 1.5-fold of each other in Kd: 229 nM for the first, 207 nM for the second.

ACIEEGQYCHADPYMCA-Sar6-K [BCY652] and [B-Ala]-Sar5-ACIEEGQYCYADPYYCA [BCY637] are within 1.5-fold of each other in Kd: 142 nM for the first, 122 nM for the second.

Compared with ACLPPGPYCFPDPYFCA-Sar6-K [BCY7122], [B-Ala]-Sar5-ACIEEGQYCYRDMYMCA [BCY633] is 13-fold higher in Kd: 147 nM for the first, 1840 nM for the second.

G-Sar5-ACIEEGQYCFADPYMCA [BCY641] and ACIEQGPFCFADPYMCA-Sar6-K [BCY7257] are within 1.5-fold of each other in Kd: 152 nM for the first, 109 nM for the second.

First: ACIEEGQYCYADPYYCASar6-K [BCY638]
Second: ACIEEGQYCFADPYLCA-Sar6-K [BCY650]
The Kd of the first is 2.2-fold higher: 192 nM for the first, 86.5 nM for the second. The second binds more tightly here.

Compared with ACIEEGQYCHADPYYCA-Sar6-K [BCY643], ACIEEGQYCHADPQMCA-Sar6-K [BCY653] is 2.6-fold higher in Kd: 148 nM for the first, 383 nM for the second.

Each substance was assayed against T1, human CD137 (AcroBiosystems) protein (Homo sapiens, UniProt Q07011) (assay: CD137 Biacore (SPR), amine coupled CD137 target assay). Details: Table 4, SPR, amine coupled CD137 on CM5 chip.
T1 construct: purchased AcroBiosystems
Type: binding

Going from ACIEEGQYCFADPYLCA [BCY599] to HEHCIEEGQYCYADPYMCA [BCY589], the Kd falls from 191 nM to 124 nM (1.5-fold).

ACLPPGPYCFPDPYFCA [BCY631] and ACIEEGQYCFADPYMCA [BCY592] are within 1.5-fold of each other in Kd: 92.3 nM for the first, 70.9 nM for the second.

What follows are substances tested against T2, Recombinant human CD137 homotrimer (Homo sapiens, UniProt Q07011) (assay: CD137 Biacore (SPR), biotinylated CD137 target assay). Details: Table 5, SPR, biotinylated CD137 captured on streptavidin, 25° C.
T2 construct: purchased R&D systems
T2 sequence (Q07011 24-186 limits assumed): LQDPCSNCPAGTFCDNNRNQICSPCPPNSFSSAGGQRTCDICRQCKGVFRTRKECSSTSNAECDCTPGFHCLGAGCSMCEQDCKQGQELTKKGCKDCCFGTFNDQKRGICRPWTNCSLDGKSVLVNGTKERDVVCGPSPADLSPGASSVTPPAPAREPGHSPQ
Type: binding

Compared with “[Ac]ACIEEGQYC[2Pal]ADPY[Nle]CA [BCY7939]”, “[Ac]ACIEEGQYC[3Pal]ADPY[Nle]CA [BCY7940]” is 1.7-fold lower in Kd: 98.6 nM for the first, 58.6 nM for the second. The second binds more tightly here.

Compared with [Ac]ACI[Aze]EGQYCFADPY[Nle]CA [BCY7924], [Ac]ACI[Oic]EGQYCFADPY[Nle]CA [BCY7956] is 3.9-fold higher in Kd: 59 nM for the first, 228 nM for the second. The first binds more tightly here.

Going from “[Ac]ACIEEGQYC[4Pal]ADPY(Nle]CA [BCY7941]” to [Ac]ACIEEG[HyP]YCFADPY[Nle]CA [BCY7952], the Kd falls from 44.4 nM to 11.8 nM (3.8-fold). The second binds more tightly here.

Compared with “[Ac]ACIEEG(55DMP]YCFADPY[Nle]CA [BCY7950]”, “[Ac]ACIEEGQ[1Nal]CFADPY[Nle]CA [BCY8671]” is 9.5-fold higher in Kd: 31.1 nM for the first, 297 nM for the second.

Compared with [Ac]ACI[Oxa]EGQYCFADPY[Nle]CA [BCY7958], [Ac]ACIEQGQYCFADPY[Nle]CA [BCY8662] is 8.9-fold higher in Kd: 20 nM for the first, 179 nM for the second. The first binds more tightly here.

First: [Ac]ACIEEGQYCFAD[Oxa]Y[Nle]CA [BCY7957]
Second: [Ac]ACIEEG[NMeAla]YCFADPY[Nle]CA [BCY7929]
The Kd of the first is 2.3-fold lower: 118 nM for the first, 269 nM for the second.

Compared with [Ac]ACIEEG[Oic]YCFADPY[Nle]CA [BCY7954], ACIEEGQYCFADPY(Nle)CA [BCY3814] is 3-fold higher in Kd: 11.1 nM for the first, 33.3 nM for the second. The first binds more tightly here.

Compared with “[Ac]ACIEE[AC5C]QYCFADPY[Nle]CA [BCY8665]”, “[Ac]ACIE[NMeGlu]GQYCFADPY[Nle]CA [BCY7927]” is 8.2-fold higher in Kd: 200 nM for the first, 1650 nM for the second.

[Ac]ACIEEG[Aib]YCFADPY[Nle]CA [BCY8668] and [Ac]CIEEGQYCFADPYMC [BCY593] are within 1.5-fold of each other in Kd: 28.7 nM for the first, 37 nM for the second.

Going from “[Ac]AC[NMelle]EEGQYCFADPY[Nle]CA [BCY7923]” to [Ac]ACIEEGQYCFAD[HyP]Y[Nle]CA [BCY7953], the Kd falls from 1150 nM to 86.6 nM (13-fold). The second binds more tightly here.

Compared with “[Ac]ACIEEGQ[2Pal]CFADPY[Nle]CA [BCY7933]”, “[Ac]AC[AC5C]EEGQYCFADPY[Nle]CA [BCY8658]” is 4-fold lower in Kd: 790 nM for the first, 200 nM for the second. The second binds more tightly here.

[Ac]ACIEE[dA]QYCFADPY[Nle]CA [BCY8664] and “[Ac]ACIEEGQ[44BPA]CFADPY[Nle]CA [BCY7936]” are within 1.5-fold of each other in Kd: 59.5 nM for the first, 43 nM for the second.

First: [Ac]ACI[Pip]EGQYCFADPY[Nle]CA [BCY7925]
Second: [Ac]ACIEEG[Oxa]YCFADPY[Nle]CA [BCY7959]
The Kd of the first is 2.8-fold higher: 105 nM for the first, 37.7 nM for the second.

Going from [Ac]ACIEEGAYCFADPY[Nle]CA [BCY8667] to [Ac]ACIQEGQYCFADPY[Nle]CA [BCY8660], the Kd rises from 68.5 nM to 380 nM (5.5-fold).

Going from “[Ac]ACIEEGQYC[HPhe]ADPY[Nle]CA [BCY7937]” to “[Ac]ACIEEGQYC[44BPA]ADPY[Nle]CA [BCY7942]”, the Kd falls from 556 nM to 35.9 nM (15-fold). The second binds more tightly here.

Compared with “[Ac]ACIEEGQYC[2Nal]ADPY[Nle]CA [BCY8673]”, “[Ac]ACIEEGQ[HPhe]CFADPY[Nle]CA [BCY7931]” is 15-fold higher in Kd: 117 nM for the first, 1750 nM for the second.

Going from [Ac]ACIPE[dA]PYCFADPY[Nle]CA [BCY7961] to [Ac]ACIEEGQYCF[Abu]DPY[Nle]CA [BCY8676], the Kd rises from 10 nM to 1000 nM (100-fold). The first binds more tightly here.

First: [Ac]ACIEE[dD]QYCFADPY[Nle]CA [BCY7928]
Second: ACIEEGQYCFADPYMCA [BCY592]
The Kd of the first is 2.3-fold higher: 97 nM for the first, 41.8 nM for the second. The second binds more tightly here.

Compared with “[Ac]AC[tBuAla]PE[dA]PYCFADPY[Nle]CA [BCY7965]”, “[Ac]ACIEEGQ[3Pal]CFADPY[Nle]CA [BCY7934]” is 41-fold higher in Kd: 4.75 nM for the first, 196 nM for the second. The first binds more tightly here.

Going from “[Ac]ACIEEGQ[4MePhe]CFADPY[Nle]CA [BCY8670]” to [Ac]ACIEE[dF]QYCFADPY[Nle]CA [BCY8663], the Kd falls from 1000 nM to 25.1 nM (40-fold). The second binds more tightly here.

Compared with [Ac]ACIPEGPYCFADPY[Nle]CA [BCY7960], [Ac]ACIPEGQYCFADPY[Nle]CA [BCY8659] is 3.1-fold higher in Kd: 10.7 nM for the first, 33.4 nM for the second.

Going from “[Ac]ACIEEGQYC[1Nal]ADPY[Nle]CA [BCY7943]” to [Ac]AC[Chg]EEGQYCFADPY[Nle]CA [BCY8657], the Kd falls from 151 nM to 62.4 nM (2.4-fold). The second binds more tightly here.

Compared with [Ac]ACIEEGQYCFAD[Oic]Y[Nle]CA [BCY7955], ACIEEGQYCF[dA]DPY[Nle]CA [BCY8217] is 3-fold higher in Kd: 169 nM for the first, 500 nM for the second.

“[Ac]AC[tBuAla]EEGQYCFADPY[Nle]CA [BCY8656]” and “[Ac]ACIEEG[AC5C]YCFADPY[NlelCA [BCY8669]” are within 1.5-fold of each other in Kd: 31 nM for the first, 33.2 nM for the second.

Going from “[Ac]ACIEEGQYC[NO2Phe]ADPY[Nle]CA [BCY8674]” to “[Ac]ACI[NMeGlu]EGQYCFADPY(Nle]CA [BCY7926]”, the Kd rises from 44.5 nM to 220 nM (4.9-fold).

Compared with “[Ac]ACIEEGQYCF[NMeAla]DPY[Nle]CA [BCY7945]”, “[Ac]ACIEEGQYC[4BrPhe]ADPY[Nle]CA [BCY8675]” is 12-fold lower in Kd: 665 nM for the first, 57.5 nM for the second. The second binds more tightly here.

[Ac]ACIEEGQYCFADPYMCA [BCY9273] gave a Kd of 108 nM.

Same assay, conditions: Table 5, SPR, biotinylated CD137 captured on streptavidin, 25° C.; read-out: KD

First: Ac]ACIEEGQYC[4tBuPhe]ADPY[Nle]CA [BCY7944]
Second: Ac]ACIEEGQ[NMeTyr]CFADPY[Nle]CA [BCY7930]
The Kd of the first is 24-fold lower: 42.2 nM for the first, 993 nM for the second.

(Ac]ACIEPGQYCFADPY[Nle]CA [BCY8661] showed a Kd of 154 nM.
